Source: patent US20200308170A1

Molecular target: KRas G12C (Homo sapiens, UniProt P01116, C118S/C51S/C80L/G12C)
Assay: KRas G12C Modification Assay (LCMS detection of covalent adduct)
Format: binding
Conditions: 5 μM concentration for 3 hours; LC/MS of intact protein; higher POC = higher degree of modification

Cc1cccc2cccc(N3CCc4c(nc(OC[C@@H]5CCCN5C)nc4N4CCN(C(=O)/C=C/c5cccnc5)[C@@H](CC#N)C4)C3)c12
POC (normalized percent of control; degree of covalent modification of KRas G12C): C (“C”>50% POC)
